According to patent US20070082871A1, “Antiresorptive mutual salt of raloxifene and bisphosphonic acid” (HANMI PHARM. CO., LTD., priority 2003, published 2007):

Tested on: ovary-removed rats
Conditions: relative to OVX control = 1.00; 1.0 mg/kg (T1)
Method: In order to investigate the effects of the inventive mutual salts on BMD, bone stiffness, serum cholesterol level and calcium density, in vivo tests were carried out as follows.
Also, 1.5% carboxymethylcellulose alone was administrated in a same manner to each of ovary-removed rats (group OVX) and normal rats (control, group Sham). After 8 weeks, a femur sample was obtained from each test groups to measure BMD, maximum load, stiffness, trabecular volume of epiphysis, bone volume of metaphysis, blood cholesterol level and blood calcium density.

SMILES: NCCCC(O)(P(=O)(O)O)P(=O)(O)O [Alendronate, sodium alendronate trihydrate]
- Bone volume Relativ Vol: 1.96
